Experimental data: PMC1262692

Target: Speedy/Ringo A2-His6 (mouse) (UniProt Q5IBH7)
Assay: SEC; Cdk2 and Speedy/Ringo A2-His6 coexpressed in E. coli, purified together on a metal affinity column, loaded on Superdex-200 in 1 x TBS (50 mM Tris-HCl pH 7.4, 150 mM NaCl, 0.5 mM EDTA, 0.5 mM DTT), 0.5 ml/min; fractions read by Coomassie stain and anti-Cdk2 blot

stoichiometry N (Cdk2 per Speedy/Ringo A2-his6): 1
Substance: Cdk2 coexpressed with Speedy/Ringo A2-His6 (unphosphorylated on Thr-160) (from UniProt P24941 1-298) (enzyme)
